Reference: patent US7037678 (CALIFORNIA INSTITUTE OF TECHNOLOGY, dated 2006)

Target: T1, endogenous Claspin of Xenopus egg extract (Xenopus, UniProt Q9DF50, phosphorylated in checkpoint-activated extract; sites not given)
T1 construct: Native protein in interphase egg extract
Assay: pull-down from interphase egg extract on nickel agarose then glutathione agarose, SDS-PAGE and silver staining; the control beads carried His6-GST
Description: Ni-IDA beads (10 µl) containing Xchk1-WT-GST-His6 protein (5 µg) were incubated for 100 min at 23° C. in 100 µl of interphase egg extract containing 3 µM tautomycin, 100 µg/ml cycloheximide, and either 50 µg/ml poly(dA)$70$ or 50 µg/ml poly(dA)$70$–poly(dT)$70$ in the presence or absence of 5 mM caffeine. The beads were isolated by centrifugation and washed four times in 10 mM Hepes-KOH (pH 7.5) containing 150 mM NaCl, 0.5% NP-40, 2.5 mM EGTA, and 20 mM β-glycerolphosphate. Bound proteins were eluted with 150 mM imidazole in the same buffer. The eluate was diluted to 500 µl and incubated with 10 µl Glutathione Sepharose 4 Fast Flow (Amersham Pharmacia Biotech) for 30 min at 4° C. The beads were washed three times in the same buffer and then subjected to SDS-PAGE. For protein sequencing, 30 ml of interphase egg extract and 1.5 mg of Xchk1-WT-GST-His6 protein were used to isolate Claspin. Proteins were eluted from glutathione agarose with 0.1% SDS, concentrated with a Microsep, 30K device (Filtron Technology), treated with dithiothreitol, alkylated, and subjected to SDS-PAGE. The gel was stained with SYPRO Red (Molecular Probes). Tryptic peptides from Claspin were separated on a Vydac C18 column and sequenced in the Caltech facility. […]

- binding result: no binding
B1: His6-GST (other)
chain: HHHHHHMSPILGYWKIKGLVQPTRLLLEYLEEKYEEHLYERDEGDKWRNKKFELGLEFPNLPYYIDGDVKLTQSMAIIRYIADKHNMLGGCPKERAEISMLEGAVLDIRYGVSRIAYSKDFETLKVDFLSKLPEMLKMFEDRLCHKTYLNGDHVTHPDFMLYDALDVVLYMDPMCLDAFPKLVCFKKRIEAIPQIDKYLKSSKYIAWPLQGWQATFGGGDHPPK
notes: Control protein from pFastBacHT-GST, held on nickel agarose beads; also called control His6-GST protein; control His6-GST; not shown: vector-derived residues between the histidine tag and GST are not described
